Assay results as given in US10849898B2, “Treatment of relapsed and/or refractory solid tumors and non-Hodgkin's lymphomas” (CELGENE QUANTICEL RESEARCH, INC., priority 2016, dated 2020).

Tests used:
Experiment in all cases: cells
[1] = tested on: IMR-90; conditions: Homo sapiens, IMR-90, read-out: Mean IC50
[2] = tested on: NCI-H841; conditions: Homo sapiens, NCI-H841, read-out: Mean IC50
[3] = tested on: NCI-H69; conditions: Homo sapiens, NCI-H69, read-out: Mean IC50
[4] = tested on: NCI-H146; conditions: Homo sapiens, NCI-H146, read-out: Mean IC50

COc1ccc(-c2c(-c3ccc(C#N)c(F)c3)nc(N3CCC(N)CC3)n(C)c2=O)cc1F [Compound A, 4-[2-(4-amino-piperidin-1-yl)-5-(3-fluoro-4-methoxy-phenyl)-1-methyl-6-oxo-1,6-dihydro-pyrimidin-4-yl]-2-fluoro-benzonitrile]
IC50 [1]: > 10000 µM
IC50 [2]: > 500 µM
IC50 [3]: 7 µM
IC50 [4]: 9.9 µM
